Laboratory results: ChEMBL document CHEMBL1131493, “Inhibitors of farnesyl protein transferase. 4-Amido, 4-carbamoyl, and 4-carboxamido derivatives of 1-(8-chloro-6,11-dihydro-5H-benzo[5,6]- cyclohepta[1,2-b]pyridin-11-yl)piperazine and 1-(3-bromo-8-chloro-6,11- dihydro-5H-benzo[5,6]cyclohepta[1,2-b]pyridin-11-yl)piperazine” (J Med Chem, 1998)

Assays:
[1] = target: T1, Protein farnesyltransferase (Homo sapiens, UniProt P49354+P49356); experiment: Inhibition of Farnesyltransferase from Ras-CVLS or Ras-CVLL in Cos-7 monkey kidney cells; format: cell-based, Chlorocebus aethiops
[2] = target: T1, Protein farnesyltransferase; experiment: In vitro inhibition of farnesyltransferase farnesylation of the H-ras oncogene; format: protein-complex assay
[3] = target: T1, Protein farnesyltransferase; experiment: In vitro inhibition of Ha-ras farnesylation in Ha-ras-transformed NIH3T3 cells; format: cell-based
[4] = target: T1, Protein farnesyltransferase; experiment: In vitro inhibition of Ha-ras farnesylation in Ki-ras-transformed NIH3T3 cells; format: cell-based
[5] = target: T1, Protein farnesyltransferase; experiment: (§1) In vitro inhibition of Ha-ras farnesylation in DLD-1 cells; format: cell-based
[6] = target: T1, Protein farnesyltransferase; experiment: as §1; format: cell-based; remark: listed apart in the source

Row | SMILES | IC50 [1] | IC50 [2] | further results
1 | NC(=O)N1CCC(CC(=O)N2CCN(C3c4ccc(Cl)cc4CCc4cc(Br)cnc43)CC2)CC1 (centres undefined) | 590 nM | 49 nM | –
2 | O=C(CN1C(=O)c2ccccc2C1=O)N1CCN(C2c3ccc(Cl)cc3CCc3cccnc32)CC1 (centres undefined) | 39900 nM | – | –
3 | O=C(Cc1cc[n+]([O-])cc1)N1CCN(C2c3ccc(Cl)cc3CCc3cc(Br)cnc32)CC1 (centres undefined) | – | 47 nM | IC50 [3]: 1200 nM; IC50 [4]: 4000 nM
4 | O=C(Cc1ccc(Br)cc1)N1CCN(C2c3ccc(Cl)cc3CCc3cccnc32)CC1 (centres undefined) | – | 2040 nM | –
5 | O=C(Cc1ccc[n+]([O-])c1)N1CCN(C2c3ccc(Cl)cc3CCc3cc(Br)cnc32)CC1 (centres undefined) | – | 400 nM | –
6 | O=C(Cc1cccnc1)N1CCN(C2c3ccc(Cl)cc3CCc3ccc[n+]([O-])c32)CC1 (centres undefined) | 11500 nM | 910 nM | –
7 | CN(C)c1ccc(CC(=O)N2CCN(C3c4ccc(Cl)cc4CCc4cccnc43)CC2)cc1 (centres undefined) | – | 2440 nM | –
8 | O=C(Cc1ccc[n+]([O-])c1)N1CCN(C2c3ccc(Cl)cc3CCc3cccnc32)CC1 (centres undefined) | 11100 nM | 1170 nM | –
9 | O=C(Cc1ccncc1)N1CCN([C@@H]2c3ccc(Cl)cc3CCc3cccnc32)CC1 | – | 490 nM | –
10 | CN1CCC(CC(=O)N2CCN([C@H]3c4ccc(Cl)cc4CCc4cc(Br)cnc43)CC2)CC1 | 900 nM | 50 nM | –
11 | O=C(Cc1cc[n+]([O-])cc1)N1CCN([C@H]2c3ccc(Cl)cc3CCc3cc(Br)cnc32)CC1 | 125 nM | – | IC50 [5]: 7000 nM; IC50 [6]: 8000 nM; IC50 [3]: 1500 nM; IC50 [4]: 6500 nM
12 | O=C(Cc1ccncc1)N1CCN(C2c3ccc(Cl)cc3CCc3cccnc32)CC1 (centres undefined) | – | 160 nM | –
13 | O=C(Cc1cccnc1)N1CCN(C2c3ccc(Cl)cc3CCc3cccnc32)CC1 (centres undefined) | 6220 nM | 530 nM | –
14 | O=C(Nc1ccncc1)N1CCN(C2c3ccc(Cl)cc3CCc3cccnc32)CC1 (centres undefined) | 10500 nM | – | –
15 | O=C(Cc1cccnc1)N1CCN([C@H]2c3ccc(Cl)cc3CCc3cccnc32)CC1 | – | 190 nM | –
16 | CN1CCC(CC(=O)N2CCN(C3c4ccc(Cl)cc4CCc4cc(Br)cnc43)CC2)CC1 (centres undefined) | – | 120 nM | –
17 | O=C(Cc1cccnc1)N1CCN([C@@H]2c3ccc(Cl)cc3CCc3cccnc32)CC1 | – | 2100 nM | –
18 | O=C(Cc1ccc[n+]([O-])c1)N1CCN([C@@H]2c3ccc(Cl)cc3CCc3cccnc32)CC1 | – | 7000 nM | –
19 | CN1CCC(CC(=O)N2CCN([C@@H]3c4ccc(Cl)cc4CCc4cc(Br)cnc43)CC2)CC1 | 700 nM | 54 nM | –
20 | CCOC(=O)N1CCC(C(=O)N2CCN(C3c4ccc(Cl)cc4CCc4cccnc43)CC2)CC1 (centres undefined) | – | 13300 nM | –
21 | O=C(Cc1ccc[n+]([O-])c1)N1CCN([C@H]2c3ccc(Cl)cc3CCc3cccnc32)CC1 | – | 2300 nM | –
22 | O=C(Cc1ccncc1)N1CCN([C@H]2c3ccc(Cl)cc3CCc3cccnc32)CC1 | – | 140 nM | –
